Values quoted from earlier work in patent US20040208926A1 (Pfizer Inc, priority 1997, published 2004).

Details: in vivo; cited from earlier work

SMILES: CN[C@H]1CC[C@@H](c2ccc(Cl)c(Cl)c2)c2ccccc21 [Sertraline]
- elimination half-life: 13.8 min
